This assay deals with 5-hydroxytryptamine receptor 5A (Mus musculus, UniProt P30966).

The chains behind the UniProt entries cited, without tags or fusion partners.
UniProt P30966, whole entry: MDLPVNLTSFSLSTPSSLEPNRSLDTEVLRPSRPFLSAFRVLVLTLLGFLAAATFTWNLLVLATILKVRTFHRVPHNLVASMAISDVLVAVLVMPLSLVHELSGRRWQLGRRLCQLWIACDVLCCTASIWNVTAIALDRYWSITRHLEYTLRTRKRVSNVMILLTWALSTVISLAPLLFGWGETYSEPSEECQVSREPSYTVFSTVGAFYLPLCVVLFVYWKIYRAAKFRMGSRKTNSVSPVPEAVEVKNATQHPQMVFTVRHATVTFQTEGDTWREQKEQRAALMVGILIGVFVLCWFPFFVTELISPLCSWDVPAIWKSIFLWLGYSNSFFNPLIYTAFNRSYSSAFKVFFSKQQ

pKi: −log10 of the molar value.

The term pKi denotes the negative decadic logarithm of the Ki, by convention in mol/L. A high value points to a low Ki. Compound `NCCc1c[nH]c2ccc(O)cc12` [[3H]-5-HT] gave a pKi of 5.96.

Values taken from BindingDB's records for doi:10.1016/0014-5793(95)01389-x (Max-Planck-Institut, 1995).
